The results in this text go back to ChEMBL document CHEMBL5726155, “1,3-thiazol-2-yl substituted benzamides” (2019).

The target of this assay is T1, P2X purinoceptor 2 (Homo sapiens, UniProt Q9UBL9).
T1 sequence (Q9UBL9 whole entry): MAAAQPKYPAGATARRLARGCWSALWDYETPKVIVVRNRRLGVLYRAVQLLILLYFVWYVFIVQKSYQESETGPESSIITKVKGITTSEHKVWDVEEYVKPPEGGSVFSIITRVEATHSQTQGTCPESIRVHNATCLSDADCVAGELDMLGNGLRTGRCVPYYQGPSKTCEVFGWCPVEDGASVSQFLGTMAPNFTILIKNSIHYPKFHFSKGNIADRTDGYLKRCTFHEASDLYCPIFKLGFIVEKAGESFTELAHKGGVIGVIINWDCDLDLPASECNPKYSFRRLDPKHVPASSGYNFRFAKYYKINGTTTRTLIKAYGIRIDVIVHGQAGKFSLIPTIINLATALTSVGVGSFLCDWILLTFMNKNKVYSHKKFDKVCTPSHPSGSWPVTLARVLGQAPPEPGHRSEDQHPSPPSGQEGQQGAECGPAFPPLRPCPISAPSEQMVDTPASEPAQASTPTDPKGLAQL
Take `Cc1cnc(-c2cc(O[C@H]3CCOC3)cc(C(=O)NC(C)c3nnc(C(F)(F)F)s3)c2)s1` (single isomer, unassigned; form 1): it took 10 µM to reach half-maximal inhibition (IC50).

As for `Cc1cnc(-c2cc(O[C@@H]3CCOC3)cc(C(=O)NC(C)c3nnc(C(F)(F)F)s3)c2)s1` (single isomer, unassigned; form 1), 10 µM corresponded to half-maximal inhibition (IC50).

For the compound `Cc1cnc(-c2cc(OCC3(F)CCCN(C)C3)cc(C(=O)N[C@H](C)c3cnc(C(F)(F)F)nc3)c2)s1` (single isomer, unassigned; form 2), the IC50 (in general, the point on the concentration scale where inhibition reaches its midpoint) came out at 0.31 µM.

As to `Cc1cnc(-c2cc(O[C@@H]3CCOC3)cc(C(=O)NC(C)c3nnc(C(F)(F)F)s3)c2)s1` (single isomer, unassigned; form 2), the IC50 is 0.245 µM.

Turning to `Cc1cnc(-c2cc(O[C@H]3CCOC3)cc(C(=O)NC(C)c3nnc(C(F)(F)F)s3)c2)s1` (single isomer, unassigned; form 2), the IC50 stood at 0.546 µM.
